Test results published in patent US8618144B2, “Pyrrolidine-derived beta 3 adrenergic receptor agonists” (Merck Sharp & Dohme Corp, priority 2009, dated 2013).
pEC50: −log10 of the molar value.

By UniProt entry, the sequences of proteins in these tests, tags left out.
UniProt P13945, whole entry: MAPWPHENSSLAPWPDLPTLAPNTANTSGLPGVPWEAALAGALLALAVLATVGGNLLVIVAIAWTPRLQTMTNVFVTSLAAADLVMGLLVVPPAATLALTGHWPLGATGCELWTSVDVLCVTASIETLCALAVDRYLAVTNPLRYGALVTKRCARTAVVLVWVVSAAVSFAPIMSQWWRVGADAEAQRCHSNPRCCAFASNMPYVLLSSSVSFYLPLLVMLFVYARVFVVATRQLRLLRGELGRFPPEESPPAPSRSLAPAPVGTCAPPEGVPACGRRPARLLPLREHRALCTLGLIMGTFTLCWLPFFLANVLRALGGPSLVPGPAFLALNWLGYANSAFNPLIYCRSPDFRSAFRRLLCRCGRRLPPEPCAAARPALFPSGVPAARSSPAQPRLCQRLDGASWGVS

Molecular target: human β3 adrenergic receptor (Homo sapiens, UniProt P13945)
Assay: Functional Assay: cAMP production in CHO cells stably transfected with cloned β3-adrenergic receptor (LANCE)
Details: read-out: Human β3 EC50, CHO cells expressing β3 receptor, range classes, tested form: trifluoroacetate
Experimental: Functional Assay: cAMP production in response to ligand is measured according to Barton et al (1991, Agonist-induced desensitization of D2 dopamine receptors in human Y-79 retinoblastoma cells. Mol. Pharmacol. […]) modified as follows. cAMP production is measured using a homogenous time-resolved fluorescence resonance energy transfer immunoassay (LANCE™, Perkin Elmer) according to the manufacture's instructions. Chinese hamster ovary (CHO) cells, stably transfected with the cloned β-adrenergic receptor (β1, β2 or β3) are harvested after 3 days of subculturing. Harvesting of cells is done with Enzyme-free Dissociation Media (Specialty Media). Cells are then counted and resuspended in assay buffer (Hank's Balanced salt solution supplemented with 5 mM HEPES, 0.1% BSA) containing a phosphodiesterase inhibitor (IBMX, 0.6 mM). […] The assay plate is then incubated for 1 hour at room temperature and time-resolved fluorescence measured on a Perkin Elmer Envision reader or equivalent. The unknown cAMP level is determined by comparing fluorescence levels to a cAMP standard curve.
The non-selective, full agonist β-adrenergic ligand isoproterenol is used at all three receptors to determine maximal stimulation. […] Data are analyzed using Microsoft Excel and Graphpad Prism or an internally developed data analysis software package.

pEC50	Compound
> 9.00	Cc1nn(CC(=O)Nc2ccc(C[C@@H]3CC[C@H]([C@H](O)COc4ccccc4)N3)cc2)c(=O)c2ccccc12
8.00 to 9.00	O=C(Cn1cc2ccccc2n1)Nc1ccc(C[C@@H]2CC[C@H]([C@H](O)COc3ccccc3)N2)cc1
